According to patent publication US7329782B2, “Compounds for the treatment of metabolic disorders” (Wellstat Therapeutics Corporation, priority 2001, dated 2008):

Tested on: ob/ob mice
Details: daily oral, 4 weeks

SMILES: CN(CCOc1ccc(CC2SC(=O)NC2=O)cc1)c1ccccn1 (stereo not drawn) [Rosiglitazone, rosiglitazone]
- ALT ± SEM (serum enzyme indicator of liver injury) (1 mg/kg/day): 668.8 ± 42.9 U/L
- AST ± SEM (serum enzyme indicator of liver injury) (1 mg/kg/day): 798.0 ± 73.8 U/L
- SDH ± SEM (serum enzyme indicator of liver injury) (1 mg/kg/day): 644.5 ± 51.6 U/L
- ALT ± SEM (serum enzyme indicator of liver injury) (3 mg/kg/day): 716.6 ± 56.6 U/L
- AST ± SEM (serum enzyme indicator of liver injury) (3 mg/kg/day): 853.8 ± 43.8 U/L
- SDH ± SEM (serum enzyme indicator of liver injury) (3 mg/kg/day): 615.4 ± 38.6 U/L
- ALT ± SEM (serum enzyme indicator of liver injury) (10 mg/kg/day): 713.6 ± 80.5 U/L
- AST ± SEM (serum enzyme indicator of liver injury) (10 mg/kg/day): 1024.0 ± 88.7 U/L
- SDH ± SEM (serum enzyme indicator of liver injury) (10 mg/kg/day): 782.0 ± 70.6 U/L
- ALT ± SEM (serum enzyme indicator of liver injury) (30 mg/kg/day): 646.0 ± 56.1 U/L
- AST ± SEM (serum enzyme indicator of liver injury) (30 mg/kg/day): 901.2 ± 49.3 U/L
- SDH ± SEM (serum enzyme indicator of liver injury) (30 mg/kg/day): 603.0 ± 27.3 U/L

Like-named read-outs stand apart in the source and are kept apart here.
